From patent US20250188037A1, “N-(PYRROLIDIN-3-YL OR PIPERIDIN-4-YL)ACETAMIDE DERIVATIVES” (Takeda Pharmaceutical Company Limited, priority 2022, published 2025) come the findings set out here.

The chains behind the UniProt entries cited, without tags or fusion partners. Where a name states a change or a piece, a line headed by the entry shows the natural chain unless it says otherwise.
UniProt P30872: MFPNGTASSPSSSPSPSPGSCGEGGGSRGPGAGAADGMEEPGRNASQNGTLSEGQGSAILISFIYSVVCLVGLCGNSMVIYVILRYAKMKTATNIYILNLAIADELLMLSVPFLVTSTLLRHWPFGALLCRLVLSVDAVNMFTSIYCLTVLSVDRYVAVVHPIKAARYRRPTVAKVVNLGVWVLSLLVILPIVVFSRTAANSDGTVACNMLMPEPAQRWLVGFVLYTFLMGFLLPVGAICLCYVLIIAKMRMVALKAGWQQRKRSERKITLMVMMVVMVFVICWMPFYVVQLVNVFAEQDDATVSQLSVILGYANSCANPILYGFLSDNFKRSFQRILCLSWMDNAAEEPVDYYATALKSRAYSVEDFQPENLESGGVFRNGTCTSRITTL

The structures appear in SMILES notation.

This experiment deals with SSTR1 (Homo sapiens (Human), UniProt P30872).
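Also: binding assay on CHO-K1 cell membranes overexpressing SSTR1, incubated 60 min at room temperature, bound fraction collected on filters and read by scintillation counting.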

In turn, `C[C@H]1CNCC[C@@H]1NC(=O)C1(Cc2cccc(Cl)c2)CC1` [Example 15, 1-(3-chlorobenzyl)-N-((3S,4S)-3-methylpiperidin-4-yl)cyclopropane-1-carboxamide] showed a 50% inhibitory concentration (IC50) of 6.31 µM.
